Data from patent publication US20200237736A1, “METHODS FOR PREVENTING OR TREATING CANCER RESISTANCE TO EGFR INHIBITION” (INSERM (INSTITUT NATIONAL DE LA SANTE ET DE LA RECHERCHE …, priority 2017, published 2020).

Key:
[1] = tested on: PC9 cells containing EGFR-T790 CRISPR-barcodes; details: co-treatment with gefitinib; 14 or 22 days; FIG. 1B
[2] = tested on: parental, EGFR-T790M and EGFR-T790M/C797S PC9 cells; details: single agents; sorafenib 5 μM, osimertinib 1 μM; five days; FIG. 7B
[3] = tested on: EGFR-T790M PC9 cells containing the EGFR-C797S CRISPR-barcode; details: gavage from day 27; osimertinib 5 mg/kg, sorafenib 60 mg/kg or combination; FIG. 9

SMILES: CNC(=O)c1cc(Oc2ccc(NC(=O)Nc3ccc(Cl)c(C(F)(F)F)c3)cc2)ccn1 [sorafenib]
- formation of resistant colonies [1]: abolished the formation of resistant colonies
- cell growth (colony forming assay) [2]: inhibited cell growth
- growth of the tumors / tumor size [3]: initially inhibited, but it eventually resumed after a few weeks
